The target in experiment [1] is recombinant human Mcl-1 (residues 171-327) / Bim interaction (Homo sapiens (Human), UniProt Q07820). The note with it: read-out: Mcl-1 HTRF IC50.
For experiment [2], the system named is human multiple myeloma cell line, OPM-2. In words: Cell viability assay (OPM-2 10 FBS), CellTiter-Glo. The class given is cell-based. In general terms: In ATP-based viability assays light output follows the ATP content of the culture.
Another experiment concerns OPM-2 Luc cells. In words: tumor PD model (OPM-2 Luc). The note with it: dosed orally to female athymic nude mice inoculated with OPM-2 Luc cells; compared with Reference Compound 1. In kind it is in vivo.
Where [3] appears, read: 0.1 nM Mcl-1(171-327), 0.05 nM biotin-Bim (51-76).
[4] abbreviates: read-out: OPM-2 10% FBS IC50 IP, OPM-2 cells, 16 h incubation.
[5] abbreviates: TR-FRET, Mcl-1(171-327) / biotin-Bim (51-76).
Where [6] appears, read: read-out: OPM-2 10% FBS IC50 IP, OPM-2 cells, 16 h, CellTiter-Glo.

Sequences of proteins named here, by UniProt entry; tags and fusion partners are left off. Residues count along the entry.
UniProt Q07820, 171-327 limits assumed: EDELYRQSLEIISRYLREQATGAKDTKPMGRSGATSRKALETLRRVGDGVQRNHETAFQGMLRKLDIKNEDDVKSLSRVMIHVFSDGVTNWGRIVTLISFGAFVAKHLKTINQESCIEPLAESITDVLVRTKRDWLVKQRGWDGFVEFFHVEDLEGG

Each structure is given as a SMILES string. Where two headings read alike, the source gives them in different places.

Consider eleven molecules from US10821115B2, “Compounds that inhibit Mcl-1 protein” (priority 2017, dated 2020).

As usually defined, the IC50 is the point on the concentration scale where inhibition reaches its midpoint.

Take `CCO[C@]1(CN2CCC3(CCO3)CC2)/C=C/C[C@H](C)[C@@H](C)S(=O)(=O)NC(=O)c2ccc3c(c2)N(C[C@@H]2CC[C@H]21)C[C@@]1(CCCc2cc(Cl)ccc21)CO3`: the IC50 in experiment [1] (setting [3]) was 0.465 nM; in experiment [2] (setting [4]) it was 694 nM. Taken in the same sequence, the figures for `CO[C@@]1(CN2CCC3(CCO3)CC2)/C=C/C[C@H](C)[C@@H](C)S(=O)(=O)NC(=O)c2ccc3c(c2)N(C[C@@H]2CC[C@H]21)C[C@@]1(CCCc2cc(Cl)ccc21)CO3` were 0.263 nM and 304 nM. Taken in the same sequence, the figures for `C[C@@H]1[C@@H](C)CCCC(O)(CNCCO)[C@@H]2CC[C@H]2CN2C[C@@]3(CCCc4cc(Cl)ccc43)COc3ccc(cc32)C(=O)NS1(=O)=O` (stereo partly shown) were 3.38 nM and 17200 nM. As for `CO[C@]1(CN2CCN3CCOC[C@@H]3C2)/C=C/C[C@H](C)[C@@H](Cc2ccccc2)S(=O)(=O)NC(=O)c2ccc3c(c2)N(C[C@@H]2CC[C@H]21)C[C@@]1(CCCc2cc(Cl)ccc21)CO3`, the IC50 in experiment [2] (setting [4]) worked out at 737 nM. The same measure, in the same setting: with `COC(=O)CCN1CCN2CCN(C[C@@]3(O)CCC[C@H](C)[C@@H](C)S(=O)(=O)NC(=O)c4ccc5c(c4)N(C[C@@H]4CC[C@H]43)C[C@@]3(CCCc4cc(Cl)ccc43)CO5)CC2C1` (stereo partly shown) the figure was 110 nM. Regarding `C[C@@H]1[C@@H](C)CCCC(O)(C#CCN2CCOCC2)[C@@H]2CC[C@H]2CN2C[C@@]3(CCCc4cc(Cl)ccc43)COc3ccc(cc32)C(=O)NS1(=O)=O` (stereo partly shown), the IC50 in experiment [1] (setting [5]) worked out at 0.348 nM; in experiment [2] (setting [6]), 151 nM.

Turning to `C=CC(=O)N1CCN2CCN(CC3(O)CCC[C@H](C)[C@@H](C)S(=O)(=O)NC(=O)c4ccc5c(c4)N(C[C@@H]4CC[C@H]43)C[C@@]3(CCCc4cc(Cl)ccc43)CO5)CC2C1` (stereo partly shown), the IC50 in experiment [1] (setting [3]) worked out at 0.147 nM; in experiment [2] (setting [4]), 78 nM.

As to `COC1(CO)/C=C/C[C@H](C)C(Cc2ccccc2)S(=O)(=O)NC(=O)c2ccc3c(c2)N(C[C@@H]2CC[C@H]21)C[C@@]1(CCCc2cc(Cl)ccc21)CO3` (single isomer, unassigned), the IC50 in experiment [1] (setting [5]) was found to be 0.075 nM; in experiment [2] (setting [6]), 117 nM. As to `C[C@@H]1[C@@H](C)CCCC(O)(CN2CCN3CCNCC3C2)[C@@H]2CC[C@H]2CN2C[C@@]3(CCCc4cc(Cl)ccc43)COc3ccc(cc32)C(=O)NS1(=O)=O` (stereo partly shown), the IC50 was 0.315 nM in experiment [1] (setting [3]) and 4980 nM in experiment [2] (setting [4]). On to `COCC[C@@H]1[C@@H](C)C/C=C/[C@@](CN2CCN3CCOC[C@@H]3C2)(OC)[C@@H]2CC[C@H]2CN2C[C@@]3(CCCc4cc(Cl)ccc43)COc3ccc(cc32)C(=O)NS1(=O)=O`, for which the “in vivo efficacy relative to Reference Compound 1 in a tumor PD model” value in the experiment with OPM-2 Luc cells was “superior in vivo efficacy”. Regarding `C[C@@H]1CS(=O)(=O)NC(=O)c2ccc3c(c2)N(C[C@@H]2CC[C@H]2[C@](O)(CN2CCN4CCOC[C@@H]4C2)/C=C/[C@@H]1C)C[C@@]1(CCCc2cc(Cl)ccc21)CO3`, the IC50 came to 0.047 nM in experiment [1] (setting [3]) and 31 nM in experiment [2] (setting [4]).
